Assay [1] has as its target neurotensin receptor subtype 1 (NTS1R) (UniProt P30989). The assay is described as follows: radioligand binding; KD of [3H]neurotensin given for the membrane preparation coexpressing D2LR and NTS1R (2.5:1); how it was determined is not told there.
Assay [2] shares this target. As to the kind of experiment: radioligand binding; KD of [3H]neurotensin on the homogenates from CHO cells stably expressing human NTS1R (Bmax 2500-6200 fmol/mg), given as a parameter of the competition assay.
Assay [3] shares this target.
Assay [4] shares this target. This is another data set of the same source.
The target is the same in assay [5]. This is another data set of the same source.
For assay [6], the target named is D2LR (Homo sapiens). The assay is described as follows: D2LR alone. The settings on record: N-homotyrosine (NhTyr) in place of tyrosine, N-terminus carries a 44-atom polyethylene glycol-based spacer.

By UniProt entry, the sequences of proteins in these tests, tags left out.
UniProt P30989, whole entry: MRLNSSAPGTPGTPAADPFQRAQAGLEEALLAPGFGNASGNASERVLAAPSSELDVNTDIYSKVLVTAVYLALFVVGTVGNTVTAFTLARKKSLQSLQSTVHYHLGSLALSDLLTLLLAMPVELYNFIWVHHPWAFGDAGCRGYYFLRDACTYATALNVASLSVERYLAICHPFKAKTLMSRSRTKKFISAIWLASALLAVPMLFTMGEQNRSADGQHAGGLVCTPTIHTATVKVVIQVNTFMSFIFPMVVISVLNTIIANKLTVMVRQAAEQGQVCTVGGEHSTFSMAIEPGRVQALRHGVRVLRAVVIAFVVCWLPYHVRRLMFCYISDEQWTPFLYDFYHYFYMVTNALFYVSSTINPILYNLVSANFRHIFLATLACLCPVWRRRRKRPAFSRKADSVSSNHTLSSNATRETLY

The Kd is the equilibrium constant for the complex coming apart. Read a high Kd as a looser complex. Take [3H]neurotensin (peptide): the Kd in assay [1] is 0.5 nM; in assay [2], 0.37 to 0.69 nM.

NT(8-13) (peptide) showed a β-arrestin-2 recruitment (PathHunter) in cells coexpressing ProLink-tagged D2R and NTS1R; EC50 in assay [3] of 7.5 nM. In assay [4], this molecule returned a cAMP accumulation (BRET biosensor CAMYEL) in HEK 293 T cells expressing only NTS1R, with 10 μM forskolin; EC50 of 2.6 nM. In addition, the β-arrestin-2 recruitment (PathHunter) in cells coexpressing ProLink-tagged D2R D80A and NTS1R; EC50 in assay [5] amounted to 5.9 nM. A word on the Ki: it is the equilibrium dissociation constant of an inhibitor or competing ligand from its target. Lower therefore signals tighter binding. Turning to RRPYIL [bivalent control compound 2f], in assay [6] (a biphenyltriazole moiety and a 2-methoxyphenylpiperazine D2R antagonist pharmacophore), the Ki is 40 nM. As to RRPYIL [bivalent control compound 3f], the Ki in assay [6] (a biphenyltriazole moiety and an aminoindane-type D2R agonist pharmacophore) is 39 nM.

The values above are taken from paper PMC4963535, “Structure-guided development of heterodimer-selective GPCR ligands” (Nature Communications, 2016).
